PubChem BioAssay AID602387 (Sanford-Burnham Center for Chemical Genomics, 2012)
Only a part is listed here, and it is no random draw. Activity calls are given as the source filed them.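 Rule for the calls: active = activation of at least 30% at 10 µM; inactive = the rest.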

experiment: beacon detection-step fluorescence artefacts – biochemical, fluorescent molecular beacon, single concentration, artefact control for DNMT1 inhibitor project, confirmation (AID 602387); details: DNMT1 molecular beacon spectral interference counterscreen, fluorescence 485/520; at 10 µM; hits give high values;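 note: DNMT1 catalytic domain with a HinP1I cleavage step and a FAM/dabcyl DNA beacon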

Question: For Nc1cccc2c([As](=O)(O)O)cccc12, which activation (fluorescence interference) is on record?
Answer: inactive: -2.14%

Question: With Nc1cccc2ccc([As](=O)(O)O)cc12 as the compound, how does the activation (fluorescence interference) read?
Answer: inactive: 0.84%
